Data: patent US20230242601A1, “PEPTIDE USED TO PREVENT OR TREAT SYNUCLEINOPATHY” (TOHOKU UNIVERSITY, priority 2020, published 2023)

Target: FABP3 fused with a His-tag at the N-terminus
Test: QCM, analyte added to immobilised FABP3

Q: “wild-type α-synuclein (full length) (from UniProt P37840 1-140)” was tested. Which Kd did it give?
A: 0.4 nM
